The text below walks through data of US20220362163A1, “METHODS AND COMPOSITIONS FOR CANCER TREATMENT USING NANOPARTICLES CONJUGATED WITH MULTIPLE LIGANDS FOR BINDING RECEPTORS ON NK CELLS” (The University of North Carolina at Chapel Hill, priority 2019, published 2022).

The test system of one data set is A431 tumor. In words: A431 tumor model in T-cell deficient Nu mice. The following applies: i.v. at 6, 8, 10 days post-inoculation.
Data set [1] in a line: Zeta potential in 0.1M PBS. It is filed as physicochemical.
A short description of data set [2]: Intensity-average diameter and polydispersity index. It is filed as physicochemical.

As for cetuximab [α-EGFR], the “effect on tumor growth” value in the data set with A431 tumor is given as “minimal effect”. The “Mean zeta potential in 0.1M PBS” value in data set [1] is −0.76 ± 0.87 mV. The Mean intensity-average diameter in data set [2] amounted to 14 ± 1 nm.
